Measured values taken from patent US11247001B2, “Delivery device with cantilever structure and associated method of use” (De Motu Cordis Pty Ltd, priority 2016, dated 2022).

Experiment: Particle deagglomeration: particle size distribution of the dose of dry powder emitted by the delivery device
Type: physicochemical
Settings: Table 2, performance of device, N = 8, 68% CI
From the text: The performance of the delivery device can be measured by how closely the particle size distribution of the emitted powder approaches the original distribution.
An embodiment of the device that stored Mannitol on a corrugated reed was also compared to the embodiment of the device that stored and dispensed Mannitol from a blister.

Fine Particle Fraction < 5 um (%): 30.4-37.1%
SMILES: CNCC(O)c1ccc(O)c(O)c1 (stereo not shown) [Adrenaline]
